# Test results taken from patent publication US4689345A, “Oxygenated alkyl substituted bicyclo alkanes” (CBD Corporation, priority 1986, dated 1987).
# Target: T1, progesterone receptor (keloid cytosol) (Homo sapiens, UniProt P06401)
# T1 construct: [3H]promegestone (R5020) tracer
# T1 sequence (P06401 1-933): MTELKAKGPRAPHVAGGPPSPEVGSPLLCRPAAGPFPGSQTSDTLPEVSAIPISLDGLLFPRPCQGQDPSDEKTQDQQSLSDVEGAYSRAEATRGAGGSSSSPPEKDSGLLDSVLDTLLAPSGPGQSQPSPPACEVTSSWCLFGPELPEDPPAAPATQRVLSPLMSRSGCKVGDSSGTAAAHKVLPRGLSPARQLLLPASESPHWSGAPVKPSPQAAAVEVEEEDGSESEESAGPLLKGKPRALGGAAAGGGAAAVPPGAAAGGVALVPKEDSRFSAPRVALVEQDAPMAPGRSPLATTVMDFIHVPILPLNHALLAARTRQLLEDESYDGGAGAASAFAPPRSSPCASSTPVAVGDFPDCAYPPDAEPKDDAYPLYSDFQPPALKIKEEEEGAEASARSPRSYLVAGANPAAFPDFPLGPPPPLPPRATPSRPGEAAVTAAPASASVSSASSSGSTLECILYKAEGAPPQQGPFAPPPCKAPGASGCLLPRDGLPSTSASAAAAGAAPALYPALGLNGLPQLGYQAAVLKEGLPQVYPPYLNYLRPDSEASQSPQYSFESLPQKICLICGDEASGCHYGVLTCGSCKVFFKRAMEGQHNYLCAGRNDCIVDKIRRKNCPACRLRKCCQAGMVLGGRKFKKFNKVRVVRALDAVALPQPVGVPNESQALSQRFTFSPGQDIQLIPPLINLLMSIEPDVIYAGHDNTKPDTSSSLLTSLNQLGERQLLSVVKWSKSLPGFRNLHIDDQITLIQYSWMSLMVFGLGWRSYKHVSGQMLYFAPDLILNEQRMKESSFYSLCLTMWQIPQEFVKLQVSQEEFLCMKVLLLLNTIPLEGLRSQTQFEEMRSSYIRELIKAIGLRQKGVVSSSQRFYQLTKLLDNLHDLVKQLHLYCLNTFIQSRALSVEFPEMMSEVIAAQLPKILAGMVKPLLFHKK
# Experiment: Keloid cytosol steroid binding assay, progesterone
smiles,measurement,setting,value
CC(=O)[C@H]1CC[C@H]2[C@@H]3CCC4=CC(=O)CC[C@]4(C)[C@H]3CC[C@]12C [Progesterone],"progesterone binding, male patients",male patients,neither detectable
same,Binding of Progesterone,patient 1,7
